Measurements published in US10646553B2, “Use of recombinant human calcineurin B subunit” (HAIKOU QILI PHARMACEUTICAL CO., LTD., priority 2015, dated 2020).

Legend:
[1] = tested on: transplantation tumor of human gastric cancer cell MGC-803 carcinoma in situ; assay: Bioluminescence detection (IVIS small animal live imaging) and necropsy of orthotopic MGC-803 tumour in nude mice; format: in vivo, BALB/c nude mice; settings: B, 164,000 IU/kg once daily 15 d
Source text: In one embodiment of the present invention, according to the “Technical Guidelines for Non-Clinical Studies of Cytotoxic Antitumor Drugs” and “Guidelines for Pharmacodynamics of Antitumor Drugs”, IVIS Kinetics (a small animal live imaging system) was used to dynamically analyze the therapeutic effect of rhCNB for injection on the BALB/c nude mice bearing the human gastric cancer cell MGC-803 carcinoma in situ. Firstly, a BALB/c nude mouse model bearing subcutaneous transplantation tumor of human gastric cancer cell MGC-803 was established, and then a BALB/c nude mouse model bearing transplantation tumor in situ of human gastric cancer cell MGC-803 was established. […] Each experimental group is administered once daily for 15 consecutive days, except that the positive control high-dose administration group of cisplatin for injection is administered for 5 days. […] Animals were examined once using Caliper IVIS Kinetics (small animal live imaging system) before the first administration (on the administration day), every other 3 days after the first administration and on the 7th day after the last administration, respectively, and body weight was measured before each examination. At the end of the last examination, animals were sacrificed and roughly necropsied, and organs inoculated with tumor (including tumor tissues) were removed for pathological examination and immunohistochemical assay of apoptosis.
Human gastric cancer cell MGC-803 was routinely cultured in vitro, digested, centrifuged, and then prepared into a cell suspension with a concentration of approximately 1×10^7 cells/mL. The cells were inoculated subcutaneously into the right armpit of mice at an amount of 0.2 mL/mouse.
Well-grown subcutaneously transplanted tumors were removed and cut into tumor tissue blocks with a size of approximately 2×2×1 mm for use. Animals to be inoculated were feed 12 hours before surgical operation and subjected to gas anesthesia with isoflurane. The anaesthetized animals were placed in supine position. The skin 2˜5 mm below the xiphoid process was cut horizontally layer-by-layer on the left side to give an opening of about 1 cm. Stomach was pull out gently using a pincette and exposed. The tumor tissue block was placed above the side near the pylorus of greater curvature of stomach of the nude mice with surgical suture #1 by “purse-string suture”, so that the tumor tissue block was wrapped therein. The skin was sutured layer by layer and disinfected by Entoiodine, and then the animals were returned back to the cage for normal feeding. 7 days after surgery, the animals were examined using the small animal live imaging system, grouped, and administrated.

[2] = Survival of tumour-bearing animals during the experiment; format: in vivo, BALB/c nude mice; settings: B, 164,000 IU/kg once daily 15 d
Source text: In one embodiment of the present invention, according to the “Technical Guidelines for Non-Clinical Studies of Cytotoxic Antitumor Drugs” and “Guidelines for Pharmacodynamics of Antitumor Drugs”, IVIS Kinetics (a small animal live imaging system) was used to dynamically analyze the therapeutic effect of rhCNB for injection on the BALB/c nude mice bearing the human gastric cancer cell MGC-803 carcinoma in situ. Firstly, a BALB/c nude mouse model bearing subcutaneous transplantation tumor of human gastric cancer cell MGC-803 was established, and then a BALB/c nude mouse model bearing transplantation tumor in situ of human gastric cancer cell MGC-803 was established. 90 nude mice modeled successfully were taken and evenly divided into 9 administration groups according to the values of bioluminescence, including: high-dose group of rhCNB for injection (administration dose, 40 mg/kg; administration concentration, 2 mg/mL), medium-dose group of rhCNB for injection (administration dose, 20 mg/kg; administration concentration, 1 mg/mL), low-dose group of rhCNB for injection (administration dose, 10 mg/kg; administration concentration, 0.5 mg/mL), progressively increasing-dose group of rhCNB for injection (with the first administration dose of 10 mg/kg, followed by increasing dose by one fold every 3 days, which are 10 mg/kg, 20 mg/kg, 40 mg/kg, 80 mg/kg, and 160 mg/kg successively), positive control administration group of recombinant human interleukin-2 for injection (administration dose, 164,000 IU/kg; administration concentration, 8200 IU/mL), positive control high-dose administration group of cisplatin for injection (5 mg/kg; administration concentration, 0.25 mg/mL), positive control low-dose administration group of cisplatin for injection (1 mg/kg; administration concentration, 0.05 mg/mL), positive control administration group of hydroxycamptothecin for injection (2 mg/kg; administration concentration, 0.1 mg/mL) and vehicle control group. Each experimental group is administered once daily for 15 consecutive days, except that the positive control high-dose administration group of cisplatin for injection is administered for 5 days. […] Animals were examined once using Caliper IVIS Kinetics (small animal live imaging system) before the first administration (on the administration day), every other 3 days after the first administration and on the 7th day after the last administration, respectively, and body weight was measured before each examination. At the end of the last examination, animals were sacrificed and roughly necropsied, and organs inoculated with tumor (including tumor tissues) were removed for pathological examination and immunohistochemical assay of apoptosis.
90 inoculated nude mice were taken and randomly divided into 9 groups based on the detected bioluminescence data, that is, high-dose group of rhCNB for injection, medium-dose group of rhCNB for injection, low-dose group of rhCNB for injection, progressively increasing-dose group of rhCNB for injection, positive control administration group of recombinant human interleukin-2 for injection, positive control high-dose administration group of cisplatin for injection, positive control low-dose administration group of cisplatin for injection, positive control administration group of hydroxycamptothecin for injection and vehicle control group, 10 mice per group.
The high-, medium-, low-dose groups and progressively increasing-dose group of the test sample were administered once daily for 15 consecutive days;

**Q.** Which “Number of animals in which tumor is not detectable and not observed” value ([1]; d0) does the source give for “interleukin-2 for injection: positive control drug, recombinant human interleukin-2 for injection” here?
**A.** The value was 0.

**Q.** And the “Number of animals in which tumor is not detectable and not observed” value ([1]; d3)?
**A.** The value was 0.

**Q.** And the “Number of animals in which tumor is not detectable and not observed” value ([1]; d6)?
**A.** Its value is 0.

**Q.** What about the “Number of animals in which tumor is not detectable and not observed” value ([1]; d9) of the same substance?
**A.** Its value is 0.

**Q.** What about the “Number of animals in which tumor is not detectable and not observed” value ([1]; d12) of the same substance?
**A.** The value was 0.

**Q.** And the “Number of animals in which tumor is not detectable and not observed” value ([1]; d15)?
**A.** Its value is 0.

**Q.** And the “Number of animals in which tumor is not detectable and not observed” value ([1]; recovery period d7)?
**A.** The value was 0.

**Q.** What about the “number of surviving animals” value ([2]; d0 before administration) of the same substance?
**A.** Its value is “(10)”.

**Q.** What about the “number of surviving animals” value ([2]; d3) of the same substance?
**A.** The value was “(10)”.

**Q.** What about the “number of surviving animals” value ([2]; d6) of the same substance?
**A.** The value was “(8)”.

**Q.** What about the “number of surviving animals” value ([2]; d9) of the same substance?
**A.** The value was “(8)”.

**Q.** And the “number of surviving animals” value ([2]; d12)?
**A.** Its value is “(7)”.

**Q.** And the “number of surviving animals” value ([2]; d15)?
**A.** Its value is “(7)”.

**Q.** And the “number of surviving animals” value ([2]; d21 (7th day after last administration))?
**A.** The value was “(7)”.
